Drawing on PubChem BioAssay AID1347071 (National Center for Advancing Translational Sciences (NCATS), 2019), this text covers growth rescue for 50 molecules.

The entries are a selection whose mix differs from that of the whole data set. Activity calls are given as the source filed them. Calls come from the whole dose curve; as a rule, active = well fitted activation curve with a large enough effect; inconclusive = small, poorly fitted or top-dose-only effect; inactive = no such curve, though single readings can be large or run the other way.

The experiment is described as follows: qHTS for compounds that reverse cellular toxicity of Amyloid beta (A-beta) peptide in yeast: Primary Screen. Note: nearly all actives have a fitted effect of over 55% in size. The settings on record: yeast expressing A-beta42, growth rescue, OD600, 48 h, 0% DMSO, 100% iron-clioquinol control; at 46.1 µM (top of the series). An excerpt:
The A-beta peptide is produced by the processing of the amyloid precursor protein (APP) by two proteases, beta and gamma secretases. […] A-beta42 is regarded as the most amyloidogenic form due to its hydrophobicity; however, precisely how A-beta42 induces neurotoxicity is unclear. To understand further this biology and its potential therapeutic implications for human neurodegenerative disease, a quantitative high-throughput screen for compounds that reverse the cellular toxicity of the A-beta peptide was developed. A yeast based screen was used because it recapitulates the salient feature of protein mis-folding disorder accurately. This cell-based phenotypic screen provides a significant, unbiased advantage by letting the compounds and models inform us which proteins or pathways are most relevant. The ideal chemical candidates would therefore have activity in both our primary yeast and secondary neuronal toxicity assays, as well as in mouse models. They will be valuable tools for dissecting diverse protein homeostasis pathologies and could potentially become the focus for future pre-clinical development. For this luminescence assay, inhibition of A-beta rescues the toxic effect in the yeast cell, resulting in increase of signals and the desired phenotype of "Activator". This screen is run against the Molecular Libraries Small Molecule Repository (MLSMR) and the NCGC Sytravon Library Collection.
NIH Chemical Genomics Center [NCGC]
NIH Molecular Libraries Probe Centers Network [MLPCN]
Assay Submitter (PI): Susan Lindquist, Whitehead Institute, Massachusetts Institute of Technology
[1] Vassar R,et al (1999). Beta-secretase cleavage of Alzheimer's amyloid precursor protein by the transmembrane aspartic protease BACE. Science. 286: 735-741.
[2] Yan R, et al (1999). Membrane-anchored aspartyl protease with Alzheimer's disease beta-secretase activity. Nature. 402: 533-536.
Two and a half microliter / well of yeast growth medium were dispensed in a 1536 assay plate. Compounds were pinned using the Kalypsys robotic system followed by addition of 2.5 uL / well yeast solution. The assay plates were incubated at 30 C. After 48 hr, the absorbance signal at 600 nm was obtained using the PerkinElmer ViewLux plate reader to assess yeast growth. The data was normalized to the positive control of an equimolar mixture of ferric chloride (FeCl3) and clioquinol and to the negative control DMSO.
A general note: qHTS replaces the single test concentration by a dilution series.
Regarding `CS(=O)(=O)c1ccc(Cl)c(NC(=O)COC(=O)C(O)(c2ccccc2)c2ccccc2)c1`, the growth rescue is inactive: 3.52%. Regarding `O=[As](O)(O)c1cccnc1`, the growth rescue was inactive: 2.9%. As to `COc1cc(C(=O)NCC2(N3CCOCC3)CCCCC2)cc(Cl)c1OC(C)C`, the growth rescue is inactive: -2.1%. On to `O=C(OC1CN2CCC1CC2)c1ccc(Cl)cc1` (stereo not given), for which the growth rescue is inactive: 14.3%. As for `Cc1cccc(OCC(=O)OC2CN3CCC2CC3)c1` (stereo not given), the growth rescue was inactive: 7.65%. With `O=[As](O)(c1cccc(O)c1)c1cccc(O)c1`, the growth rescue was inactive: 15.2%. For the molecule `CCCOP(=S)(Nc1nc(N)cc(=O)[nH]1)OCCC`, the growth rescue was inactive: 9.89%. Turning to `Cc1ccc(NCCc2c([N+](=O)[O-])cc([N+](=O)[O-])cc2[N+](=O)[O-])cc1`, the growth rescue is inactive: -35.2%.

In the case of `Nc1cccc2c([As](=O)(O)O)cccc12`, the growth rescue is inactive: 0.172%. With `CCOP(=O)(Nc1cccc2ccccc12)OCC` the figure was inactive: 34.2%. With `COc1cc(C2NCCC3(OCCO3)C2(C)C)cc(OC)c1OC` (stereo not given), the growth rescue is inactive: -11%.

For `CS(=O)(=O)c1cc([N+](=O)[O-])c2no[n+]([O-])c2c1`, the growth rescue was inactive: 1.12%. For `O=P(Nc1nccs1)(Oc1ccccc1)Oc1ccccc1`, the growth rescue was inactive: -1.5%. With `O=P(Nc1nccs1)(c1ccccc1)c1nc2ccccc2s1` (stereo not given), the growth rescue is inactive: -83.5%. Next, `CCOP1(=S)c2c(C)nn(CCC#N)c2N=C(c2ccccc2F)N1C` (stereo not given): inactive: -13.7%; `Nc1ccccc1[As](=O)(O)c1ccccc1`: inactive: -0.299%. Turning to `O=C(O)COc1ccc([As](=O)(O)O)cc1[N+](=O)[O-]`, the growth rescue is inactive: -32.2%. As for `NC(=O)Nc1ccc([As](=O)(O)O)cc1`, the growth rescue was inactive: 6.84%. On to `CN(C(=O)Cc1ccc(Cl)c(Cl)c1)[C@H]1CC[C@@]2(CCCO2)C[C@@H]1N1CCCC1`, for which the growth rescue was inactive: -2.37%.

Consider `O=[N+]([O-])c1ccc2c(c1)nnn2O`, for which the growth rescue is inactive: 0.712%. Take `CN(C)C(=O)c1cc([N+](=O)[O-])cc2c1-c1c(cc([N+](=O)[O-])cc1[N+](=O)[O-])C2=O`: the growth rescue was inactive: -83.6%. Regarding `CCOP1(=S)c2c(C)nn(CCC#N)c2N=C(c2ccc(F)cc2)N1C` (stereo not given), the growth rescue is inactive: -21.9%.

On to `CN(C(=O)Cc1ccccc1)[C@@H]1CC[C@]2(CCCO2)C[C@H]1N1CCCC1`, for which the growth rescue was inactive: 5.96%. On to `N#CCCN(C(=O)COC(=O)C(O)(c1ccccc1)c1ccccc1)c1ccc(F)cc1`, for which the growth rescue was inactive: 7.42%. Next, `CC1CCC(C(C)C)C(OP(=O)(Nc2ccccn2)c2ccccc2)C1` (stereo not given): inactive: 2.93%.

As for `Cc1ccc(C(=O)OC2CN3CCC2CC3)cc1` (stereo not given), the growth rescue was inactive: 11.1%. With `Cc1nn(-c2ccccc2)c2c1P(=O)(N1CCOCC1)N(C)C(c1ccccc1)=N2` (stereo not given), the growth rescue is inactive: -2.45%. On to `CCCC1OP(=O)(Nc2ccccc2)OCC1CC` (stereo not given), for which the growth rescue was inactive: 3.93%. Turning to `O=C(/C=C/c1ccccc1)OC1CN2CCC1CC2` (stereo not given), the growth rescue is inactive: -11.9%.

In the case of `CN(C)C1(CNC(=O)c2ccc(S(C)(=O)=O)cc2)CCCCC1`, the growth rescue was inactive: 17%. Regarding `O=P1(Nc2ncccn2)COc2ccccc2OC1`, the growth rescue is inactive: -7.95%. Next, `Cc1ccc(S(=O)(=O)N(CCCN)CCCc2c(C)nc(N)[nH]c2=O)cc1`: inactive: -16.2%.

`O=[As](O)(c1cccs1)c1cccs1`: the growth rescue is inactive: 10.9%. With `O=P1(Nc2ccc(Br)cn2)COc2ccccc2OC1`, the growth rescue is inactive: 8.19%. For `NS(=O)(=O)c1cccc(NC(=O)COC(=O)C(O)(c2ccccc2)c2ccccc2)c1`, the growth rescue is inactive: -14.7%.

For the molecule `Nc1cccc([As](=O)(O)c2ccccc2)c1`, the growth rescue was inactive: 13.4%.

Take `CCOP(=O)(Nc1ccc(C)cn1)OCC`: the growth rescue was inactive: -8.02%. For `CN(CCCl)Cc1cc(Cl)c(NC2=NCCN2)c(Cl)c1`, the growth rescue is inactive: 0%.

`CCOP(=O)(NC(=NC(C)c1ccccc1)NC(C)c1ccccc1)OCC` (stereo not given): the growth rescue was inactive: 13.2%. Regarding `O=P1(Nc2ccccn2)COc2ccccc2OC1`, the growth rescue was inactive: -13.9%.

Turning to `CCC1=CC2Cc3nc4ccc(Cl)cc4c(N)c3C(C1)C2` (stereo not given), the growth rescue is inactive: 1.78%. In the case of `CC(C)(C)C(=O)NC(Sc1ncccn1)C(Cl)(Cl)Cl` (stereo not given), the growth rescue was inactive: 10.1%. With `O=P1(N(CCCl)CCCl)NCCC(C(F)(F)F)O1` (stereo not given) the figure was inactive: 4.85%; with `Clc1n[nH]nc1-c1nn[nH][15n]1`, inactive: -0.784%; with `COc1ccccc1CNC(=O)COC(=O)C(O)(c1ccccc1)c1ccccc1`, inactive: 10.1%. In the case of `CC1(CBr)Cn2c(nc3ccccc3c2=O)S1` (stereo not given), the growth rescue is inactive: 20%. Take `CC(C)/C=N\N=C(\N)N[N+](=O)[O-]`: the growth rescue was inactive: -12.9%. As for `CN(C(=O)Cc1ccc(Cl)c(Cl)c1)[C@@H]1CCCC[C@H]1N1CCCC1`, the growth rescue is inactive: -8.08%.

As to `COC(=O)C1(C)COP(=O)(N2CCCC2)OC1` (stereo not given), the growth rescue was inactive: -2.62%. Regarding `COP1(=S)c2c(C)nn(CCC#N)c2N=C(c2ccc(F)cc2)N1C` (stereo not given), the growth rescue was inactive: 9%.
